{"source": "patent EP0236477B1", "about": "(priority 1985, dated 1987)", "key": {"healthy males [1]": {"test_system": "healthy males", "details": "pretreatment 0.5, 1.0 or 2.0 mg intravenously"}, "healthy males [2]": {"test_system": "healthy males"}}, "note": "Read-outs that look alike come from different tables or passages of the source.", "data": [{"smiles": "C=C1CC[C@@]2(O)[C@H]3Cc4ccc(O)c5c4[C@@]2(CCN3CC2CC2)[C@H]1O5", "note": "[6-methylene-6-desoxy-N-cyclopropylmethyl-14-hydroxydihydronormorphine]", "values": [{"measurement": "effect on the analgesic response to fentanyl", "setting": "healthy males [1]", "result": "abolished this analgesic response in a dose-related time course"}, {"measurement": "persistence of antagonist effects", "setting": "healthy males [2]; pretreatment 0.5 mg intravenously", "result": "about 4 hours"}, {"measurement": "VE60", "setting": "healthy males [2]; pretreatment 0.5 mg intravenously, fentanyl challenge at about 4 hours", "result": "64 % of control"}, {"measurement": "VE60", "setting": "healthy males [2]; pretreatment 1.0 mg intravenously, fentanyl challenge at 6 hours", "result": "66 % of control"}, {"measurement": "VE60", "setting": "healthy males [2]; pretreatment 1.0 mg intravenously, fentanyl challenge at 8 hours", "result": "61 % of control"}, {"measurement": "effect on fentanyl respiratory depression compared to placebo pretreatment", "setting": "healthy males [2]; pretreatment 1.0 mg intravenously, over 8 hours", "result": "significantly blunted the respiratory depression"}, {"measurement": "prevention of the subjective and respiratory effects of fentanyl", "setting": "healthy males [2]; pretreatment 2.0 mg intravenously, fentanyl 2 µg/kg at 1, 2, 4, 6, 8 hours", "result": "completely prevented the subjective and respiratory effects of fentanyl for the entire 8 hours"}]}]}
